PubChem BioAssay (NCI)
Some results for these compounds are left out of this collection, so the calls shown say nothing about other tests.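 Assay format: 96-well plates, 48-hour exposure. TGI marks complete inhibition of growth.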

Experiments:
Test in all cases: growth of human tumour cells (NCI), 48 h
SF-268 CNS = test system: SF-268 CNS
MDA-N = test system: MDA-N
A498 renal = test system: A498 renal
MOLT-4 leukemia = test system: MOLT-4 leukemia
SN12C renal = test system: SN12C renal
UACC-62 melanoma = test system: UACC-62 melanoma
A549 NSCLC = test system: A549 NSCLC
UO-31 renal = test system: UO-31 renal
HT29 colon = test system: HT29 colon
NCI-H23 lung = test system: NCI-H23 lung
OVCAR-4 ovarian = test system: OVCAR-4 ovarian
SF-295 CNS = test system: SF-295 CNS
U251 CNS = test system: U251 CNS
SK-OV-3 ovarian = test system: SK-OV-3 ovarian
786-0 renal = test system: 786-0 renal
LOX IMVI melanoma = test system: LOX IMVI melanoma
CCRF-CEM leukemia = test system: CCRF-CEM leukemia
MDA-MB-435 = test system: MDA-MB-435
ACHN renal = test system: ACHN renal
TK-10 renal = test system: TK-10 renal
SK-MEL-5 melanoma = test system: SK-MEL-5 melanoma
SNB-19 CNS = test system: SNB-19 CNS
RPMI-8226 leukemia = test system: RPMI-8226 leukemia
KM12 colon = test system: KM12 colon
IGROV1 ovarian = test system: IGROV1 ovarian
MCF7 breast = test system: MCF7 breast
NCI-H522 lung = test system: NCI-H522 lung
RXF 393 renal = test system: RXF 393 renal
BT-549 breast = test system: BT-549 breast
HL-60(TB) leukemia = test system: HL-60(TB) leukemia
UACC-257 melanoma = test system: UACC-257 melanoma
SK-MEL-28 melanoma = test system: SK-MEL-28 melanoma
K-562 leukemia = test system: K-562 leukemia
COLO 205 colon = test system: COLO 205 colon
PC-3 prostate = test system: PC-3 prostate
HCT-116 colon = test system: HCT-116 colon
HS 578T breast = test system: HS 578T breast
T-47D breast = test system: T-47D breast
MDA-MB-231 breast = test system: MDA-MB-231 breast
NCI/ADR-RES ovarian = test system: NCI/ADR-RES ovarian
SW-620 colon = test system: SW-620 colon
HCT-15 colon = test system: HCT-15 colon
NCI-H226 lung = test system: NCI-H226 lung
HOP-62 NSCLC = test system: HOP-62 NSCLC
M14 melanoma = test system: M14 melanoma
SK-MEL-2 melanoma = test system: SK-MEL-2 melanoma
DU-145 prostate = test system: DU-145 prostate
SR leukemia = test system: SR leukemia
MALME-3M melanoma = test system: MALME-3M melanoma
OVCAR-8 ovarian = test system: OVCAR-8 ovarian
OVCAR-5 ovarian = test system: OVCAR-5 ovarian
SNB-75 CNS = test system: SNB-75 CNS
HCC-2998 colon = test system: HCC-2998 colon
NCI-H322M lung = test system: NCI-H322M lung
NCI-H460 lung = test system: NCI-H460 lung
OVCAR-3 ovarian = test system: OVCAR-3 ovarian

O=C(OCCC1=C2CCN(CC2)C1)C(O)(c1ccccc1)C1CCCC1 (stereo unspecified)
TGI (SF-268 CNS): 29.9 µM | TGI (MDA-N): > 100 µM | TGI (A498 renal): > 100 µM | TGI (MOLT-4 leukemia): 86.5 µM | TGI (SN12C renal): > 100 µM | TGI (UACC-62 melanoma): 35.9 µM | TGI (A549 NSCLC): 72.6 µM | TGI (UO-31 renal): > 100 µM | TGI (HT29 colon): > 100 µM | TGI (NCI-H23 lung): > 100 µM | TGI (OVCAR-4 ovarian): > 100 µM | TGI (SF-295 CNS): 49.7 µM | TGI (U251 CNS): > 100 µM | TGI (SK-OV-3 ovarian): > 100 µM | TGI (786-0 renal): 33 µM | TGI (LOX IMVI melanoma): > 100 µM | TGI (CCRF-CEM leukemia): 33.7 µM | TGI (MDA-MB-435): > 100 µM | TGI (ACHN renal): 62.1 µM | TGI (TK-10 renal): > 100 µM | TGI (SK-MEL-5 melanoma): 25 µM | TGI (SNB-19 CNS): > 100 µM | TGI (RPMI-8226 leukemia): 61.8 µM | TGI (KM12 colon): > 100 µM | TGI (IGROV1 ovarian): > 100 µM | TGI (MCF7 breast): 40.7 µM | TGI (NCI-H522 lung): > 100 µM | TGI (RXF 393 renal): 77.6 µM | TGI (BT-549 breast): > 100 µM | TGI (HL-60(TB) leukemia): 56.3 µM | TGI (UACC-257 melanoma): 55.2 µM | TGI (SK-MEL-28 melanoma): 50.2 µM | TGI (K-562 leukemia): 13.3 µM | TGI (COLO 205 colon): 37.7 µM | TGI (PC-3 prostate): > 100 µM | TGI (HCT-116 colon): 70.8 µM | TGI (HS 578T breast): > 100 µM | TGI (T-47D breast): 56.9 µM | TGI (MDA-MB-231 breast): > 100 µM | TGI (NCI/ADR-RES ovarian): > 100 µM | TGI (SW-620 colon): 52.3 µM | TGI (HCT-15 colon): > 100 µM | TGI (NCI-H226 lung): > 100 µM | TGI (HOP-62 NSCLC): 59.2 µM | TGI (M14 melanoma): 30.7 µM | TGI (SK-MEL-2 melanoma): 55.3 µM | TGI (DU-145 prostate): > 100 µM | TGI (SR leukemia): > 100 µM | TGI (MALME-3M melanoma): 51.4 µM | TGI (OVCAR-8 ovarian): > 100 µM | TGI (OVCAR-5 ovarian): > 100 µM | TGI (SNB-75 CNS): 99.2 µM | TGI (HCC-2998 colon): > 100 µM | TGI (NCI-H322M lung): > 100 µM | TGI (NCI-H460 lung): > 100 µM | TGI (OVCAR-3 ovarian): > 100 µM
